This is a selection; strong and weak results do not stand in their true shares. Some tests of the compounds listed are not included; inactive here does not mean inactive elsewhere. Inconclusive results are not listed. Active and inactive are the calls of the source.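 How the source made its calls: active means readout at or below -70, meaning at least 70% loss of cells showing the perinucleolar compartment, a nuclear body marking cancer cells; inconclusive means readout between -30 and a set limit; inactive means the rest.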

Experimental findings from PubChem BioAssay AID2417 (National Center for Advancing Translational Sciences (NCATS), 2010) are described below.

The nature of the assay: High Content Assay for Compounds that inhibit the Assembly of the Perinucleolar Compartment.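 Further: plate controls were DMSO wells for no effect and camptothecin positive control wells for full effect.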 Conditions: PC3M PTB-GFP, PNC prevalence imaging, 16 h; at 10 µM; hits give low values. The text has this:
High Content Assay for Compounds that inhibit the Assembly of the Perinucleolar Compartment NIH Chemical Genomics Center [NCGC] NIH Molecular Libraries Probe Centers Network [MLPCN] MLPCN Grant: MH082371-01A2 Assay Submitter (PI): Sui Huang, Northwestern University, Feinberg School of Medicine, Cell and Molecular Biology, Chicago, Illinois. The perinucleolar compartment (PNC) is a non-membrane-bound nuclear subdomain that is associated with but structurally distinct from the nucleolus. The PNC is a heritable trait, in which the number of PNCs per cell in daughter cells often mimics that of their mother cells. The PNC is heterogeneous in shape, is stable through interphase, disassembles during mitosis, and reassembles in early G1. The PNC is concentrated with newly synthesized RNA polymerase III (pol III) RNAs (MRP RNA, RNAse P H1 RNA, hY RNAs[hY1, 2, 5], Alu RNA, and SRP [7SL] RNA) and RNA binding proteins (nucleolin, PTB, CUG-BP, KSRP, Raver1, Raver2, and Rod). […] Extensive in vitro studies have shown that the PNC is unique to tumor cells and preferentially forms in tumor cells derived from solid tissues. Examination of cancer cell lines from various origins and malignant capacities has shown that PNC prevalence correlates with the malignancy of tumors and has the potential to be developed as a pan-cancer prognostic marker. […] Although the PNC is associated with a DNA locus and a handful of components have been identified, much remains to be investigated regarding the structure and function of the PNC and its mechanistic link to cancer. We have previously shown that PNC prevalence reduction is a valid strategy to identify compounds that can be used to study the structure and function of the PNC. It is necessary, however, to create a screening platform that is able to test a large number of compounds in an automated fashion. […]
PNC High Content Imaging Assay Procedure: 1. […] PNC prevalence was determined using the Multitarget analysis module from InCell Workstation software (V3.5 ) and analysis was run on a quad core workstation using the Incell Developer Toolbox (V1.7). […]
For `CN(C)c1cccc(C(=O)NCC2(N(C)C)CCCCC2)c1`, the activity change (PNC), negative = inhibition is inactive: -19.4%.
For the compound `CC(C)N1C(=O)CC2(CCN(CCOC(=O)C(O)(c3ccccc3)c3ccccc3)CC2)C1=O`, the activity change (PNC), negative = inhibition was inactive: 61.4%.
To `CN(C)C1CCCC1OC(=O)C(O)(c1ccccc1)c1ccccc1` (stereo not drawn) belongs inactive: -1.56%.
